# Measured values reported in patent US12521389B2, “Therapeutic approach to lung disease” (The Regents of the University of California, priority 2019, dated 2026).
# Entries after “also recorded” stand apart in the source; their conditions may differ.
# Test system: wild-type mouse lung
# Experiment: Lung wet-to-dry ratio after intranasal CGRP administration in wild type mice
# Format: in vivo
# Settings: wild type pups; intranasal 10 ul 1 ng/ul at P10, P12, P14, P16; measured at P18; vs saline
# Text: Next, molecules that mediate the impact of PNEC hyperplasia on NEHI symptoms were investigated using the NEHI mouse model. As PNECs are known for their production of highly bioactive neuropeptides, neurotransmitters and amines, it is reasoned that PNEC products could be potential mediators. It has been reported that CGRP is a key neuropeptide secreted by PNECs, can act as a vasodilator and can induce edema when injected in the paw.
# Each lung was removed from sacrificed mouse right after euthanasia. Excessive blood was removed by kimwipe and wet weight mw was measured right after dissection. The lung was then placed on the foil at 70° C. for 24 hours. Dry weight […] was then measured by reweighing the dried lung. Wet-to-dry ratio was calculated as: W/D ratio=mw/md.
# BIBN-4096 (Fisher Scientific #45-611-0) was dissolved in 100% DMSO (Sigma-Aldrich D2650) and further diluted to working solution with saline before use. 10 ul of 0.3 mg/ml BIBN-4096 was intranasally administrated to pups at P10, P12, P14, P16 and P18. CGRP (Sigma-Aldrich C0292) was dissolved and diluted with saline to reach the working concentration. 10 ul 1 ng/ul CGRP was intranasally administrated to pups at P10, P12, P14 and P16.
substance,measurement,value
"CGRP: calcitonin gene-related peptide, neuropeptide secreted by PNECs (Sigma-Aldrich C0292) (ACDTATCVTHRLAGLLSRSGGVVKNNFVPTNVGSKAF; Calcitonin gene-related peptide 1; UniProt P06881 83-119, looked up)",Lung wet-to-dry ratio (pulmonary edema),increase of fluid in the lung; also recorded: significant increase
